# Biological target: Procathepsin L (Bos taurus, UniProt P25975)
# Chains of the proteins cited; added tags and fusions are not shown. Lines headed by an entry give the natural chain unless they say otherwise; changes in a name come on top.
# UniProt P25975: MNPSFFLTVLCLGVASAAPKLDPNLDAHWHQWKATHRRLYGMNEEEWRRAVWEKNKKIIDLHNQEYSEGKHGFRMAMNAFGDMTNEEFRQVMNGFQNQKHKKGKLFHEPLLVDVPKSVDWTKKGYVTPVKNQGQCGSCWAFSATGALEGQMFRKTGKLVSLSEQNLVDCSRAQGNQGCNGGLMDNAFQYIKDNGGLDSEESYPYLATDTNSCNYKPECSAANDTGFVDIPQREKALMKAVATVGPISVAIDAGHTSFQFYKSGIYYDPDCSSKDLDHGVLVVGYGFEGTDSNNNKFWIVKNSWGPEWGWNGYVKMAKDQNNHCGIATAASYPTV
# Test: Inhibitory activity against bovine cathepsin L using Z-Phe-Arg-NHMec substrate
row,SMILES,Ki [nM]
1,CC(C)(C)OC(=O)N[C@@H](Cc1ccccc1)C(=O)NCC#N,520
2,CC(C)(C)OC(=O)N[C@H](Cc1ccccc1)C(=O)NCC#N,> 100000
